Values of other authors in US20100267803A1, “Regulators Of Fat Metabolism As Anti-Cancer Targets” (The Research Foundation of State University Of New York, priority 2008, published 2010).

Test system: metastatic ERBB2-positive breast cancer
Details: single agent therapy; patients with metastatic ERBB2-positive breast cancer; cited from earlier work

Substance: Herceptin: a monoclonal antibody targeting the extracellular domain of ERBB2
- response rates: 30%
